Measurements reported in PMC2955234 (Investigational New Drugs, 2009).

Assay: Pharmacokinetics of sorafenib in plasma
Type: in vivo
Conditions: human, oral, 400 mg, C max, Cohort 1, cycle 1, day 2, 400 mg sd (n = 6), geometric mean (% CV)

Structure (SMILES): CNC(=O)c1cc(Oc2ccc(NC(=O)Nc3ccc(Cl)c(C(F)(F)F)c3)cc2)ccn1 [Sorafenib]
- Cmax: 2500 ng/mL
